# Reference: US10570116B2, “1,4-dicarbonyl-piperidyl derivatives” (Merck Patent GmbH, priority 2015, dated 2020)
# System: Tankyrases
# Experiment: Measurement of cellular inhibition of Tankyrase (Axin2 level, Luminex based assay, DLD1 cells)
# Type: cell-based
# Details: increase of Axin2 level, 24 hours, read-out: EC50 [M] TNKS cellular assay
smiles,measurement,value
"Cn1cc(C(=O)C2CCN(C(=O)COCc3nc4c(F)cc(F)cc4c(=O)[nH]3)CC2)cn1 [Compound C27, 6,8-Difluoro-2-{2-[4-(1-methyl-1H-pyrazole-4-carbonyl)-piperidin-1-yl]-2-oxo-ethoxymethyl}-3H-quinazolin-4-one]",EC50,2.4e-07 M
